Measurements from ChEMBL document CHEMBL1145458, “Novel vanilloid receptor-1 antagonists: 1. Conformationally restricted analogues of trans-cinnamides” (J Med Chem, 2007).

Chains of the proteins cited; added tags and fusions are not shown.
UniProt O35433, whole entry: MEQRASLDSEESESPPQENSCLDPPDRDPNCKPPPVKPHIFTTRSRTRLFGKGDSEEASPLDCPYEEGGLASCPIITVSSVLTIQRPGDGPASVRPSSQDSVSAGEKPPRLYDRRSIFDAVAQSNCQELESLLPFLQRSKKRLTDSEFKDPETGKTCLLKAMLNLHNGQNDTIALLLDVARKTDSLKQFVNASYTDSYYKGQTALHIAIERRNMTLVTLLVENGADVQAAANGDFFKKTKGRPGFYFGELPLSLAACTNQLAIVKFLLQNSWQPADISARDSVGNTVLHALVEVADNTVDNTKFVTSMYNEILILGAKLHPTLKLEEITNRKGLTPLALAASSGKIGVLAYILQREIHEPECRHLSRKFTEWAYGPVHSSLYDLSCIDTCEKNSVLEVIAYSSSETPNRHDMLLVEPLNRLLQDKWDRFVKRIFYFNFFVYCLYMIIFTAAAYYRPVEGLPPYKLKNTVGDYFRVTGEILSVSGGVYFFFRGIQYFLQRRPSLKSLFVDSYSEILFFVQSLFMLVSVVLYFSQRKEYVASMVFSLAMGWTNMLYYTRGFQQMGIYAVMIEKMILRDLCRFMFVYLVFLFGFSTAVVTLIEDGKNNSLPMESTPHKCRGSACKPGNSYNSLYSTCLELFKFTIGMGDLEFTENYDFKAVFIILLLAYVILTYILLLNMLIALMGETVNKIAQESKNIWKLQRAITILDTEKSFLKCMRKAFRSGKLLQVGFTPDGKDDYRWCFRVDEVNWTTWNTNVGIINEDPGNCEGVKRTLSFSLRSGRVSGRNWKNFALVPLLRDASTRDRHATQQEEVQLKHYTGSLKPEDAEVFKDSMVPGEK

Key:
[1] = biological target: T1, Transient receptor potential cation channel subfamily V member 1 (Rattus norvegicus, UniProt O35433); assay: Antagonist activity at rat TRPV1 expressed in CHO cells assessed as inhibition of capsaicin-induced calcium influx; type: functional, cell-based
Outline: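 Human or rat TRPV1-CHO cells were preincubated with compound for 2 min at room temperature in HBSS with 0.1 mg/mL BSA and 1 mM HEPES pH 7.4. Cells were washed and radioactivity counted. IC50 is the mean of at least two experiments, triplicate per concentration, ±SEM.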

[2] = biological target: T1, Transient receptor potential cation channel subfamily V member 1; assay: Antagonist activity at rat TRPV1 expressed in CHO cells assessed as inhibition of acid-induced calcium influx; type: functional, cell-based
Outline: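 CHO cells stably transfected with human or rat TRPV1 were preincubated with compound for 2 min at room temperature. After washout, uptake was read by scintillation counting. IC50 values come from inhibition curves, averaging at least two experiments run in triplicate.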

| SMILES | IC50 [1] [nM] | IC50 [2] [nM] |
| --- | --- | --- |
| FC(F)(F)c1ccc(-c2cc(Nc3ccc4cccnc4c3)ncn2)cc1 | 4.5 |  |
| CC(C)(C)c1ccc(/C=C/C(=O)Nc2ccc3c(c2)OCCO3)cc1 | 79 | 350 |
